Literature values, collected in patent publication US20150141617A1, “PRODUCTION AND PURIFICATION OF ACTIVE EUKARYOTIC FORMYLGLYCINEGENERATING ENZYME (FGE) VARIANTS” (Universität Bielefeld, priority 2013, published 2015).

Sequences of proteins named here, by UniProt entry; tags and fusion partners are left off. Residues count along the entry.
UniProt P09958, 108-794 limits assumed: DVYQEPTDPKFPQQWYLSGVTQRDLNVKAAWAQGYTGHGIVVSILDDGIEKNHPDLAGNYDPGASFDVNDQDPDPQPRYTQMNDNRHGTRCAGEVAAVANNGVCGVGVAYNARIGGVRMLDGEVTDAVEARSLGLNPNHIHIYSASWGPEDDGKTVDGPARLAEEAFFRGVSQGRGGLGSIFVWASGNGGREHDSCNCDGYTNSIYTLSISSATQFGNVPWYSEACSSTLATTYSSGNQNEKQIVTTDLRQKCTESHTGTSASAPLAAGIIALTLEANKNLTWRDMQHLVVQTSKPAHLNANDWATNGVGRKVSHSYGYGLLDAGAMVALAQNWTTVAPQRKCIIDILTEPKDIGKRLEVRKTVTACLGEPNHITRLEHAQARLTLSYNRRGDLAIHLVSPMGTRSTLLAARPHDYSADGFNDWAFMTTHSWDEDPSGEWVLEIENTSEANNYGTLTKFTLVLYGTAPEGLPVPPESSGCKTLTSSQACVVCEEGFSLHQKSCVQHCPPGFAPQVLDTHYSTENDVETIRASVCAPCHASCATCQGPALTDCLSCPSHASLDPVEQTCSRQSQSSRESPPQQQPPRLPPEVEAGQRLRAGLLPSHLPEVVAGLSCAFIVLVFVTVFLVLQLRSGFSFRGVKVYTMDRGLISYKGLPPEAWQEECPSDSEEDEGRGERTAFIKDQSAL

Target: furin (Homo sapiens, UniProt P09958)
Details: read-out: Ki against furin; cited from earlier work

Q: For `N=C(N)NCCC[C@H](NC(=O)[C@H](CCCNC(=N)N)NC(=O)[C@H](CCCNC(=N)N)NC(=O)[C@H](CCCNC(=N)N)NC(=O)[C@H](CCCNC(=N)N)NC(=O)[C@H](CCCNC(=N)N)NC(=O)[C@H](CCCNC(=N)N)NC(=O)[C@H](CCCNC(=N)N)NC(=O)[C@@H](N)CCCNC(=N)N)C(=O)O`, which Ki is on record?
A: 0.04 µM
